Measured values reported in ChEMBL document CHEMBL3259661, “Identification of a neuroprotective and selective butyrylcholinesterase inhibitor derived from the natural alkaloid evodiamine” (Eur J Med Chem, 2014).

The chains behind the UniProt entries cited, without tags or fusion partners. Where a name states a change or a piece, a line headed by the entry shows the natural chain unless it says otherwise.
UniProt P81908, whole entry: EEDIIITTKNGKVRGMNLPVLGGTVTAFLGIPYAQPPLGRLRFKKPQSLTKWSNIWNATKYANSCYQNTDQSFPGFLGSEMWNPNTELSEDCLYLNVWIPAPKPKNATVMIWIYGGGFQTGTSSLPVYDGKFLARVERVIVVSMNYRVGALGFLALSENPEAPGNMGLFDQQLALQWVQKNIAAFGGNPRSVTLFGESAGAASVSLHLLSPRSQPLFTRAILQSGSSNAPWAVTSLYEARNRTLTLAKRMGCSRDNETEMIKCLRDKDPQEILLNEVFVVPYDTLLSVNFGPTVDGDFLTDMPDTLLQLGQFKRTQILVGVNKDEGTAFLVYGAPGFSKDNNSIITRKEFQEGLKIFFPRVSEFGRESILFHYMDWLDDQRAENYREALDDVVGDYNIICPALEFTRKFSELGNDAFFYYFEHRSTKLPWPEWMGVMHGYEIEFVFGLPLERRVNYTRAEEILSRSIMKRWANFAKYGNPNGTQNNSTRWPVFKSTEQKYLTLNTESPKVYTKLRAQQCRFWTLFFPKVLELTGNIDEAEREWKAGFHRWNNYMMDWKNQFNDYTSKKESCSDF
UniProt O42275: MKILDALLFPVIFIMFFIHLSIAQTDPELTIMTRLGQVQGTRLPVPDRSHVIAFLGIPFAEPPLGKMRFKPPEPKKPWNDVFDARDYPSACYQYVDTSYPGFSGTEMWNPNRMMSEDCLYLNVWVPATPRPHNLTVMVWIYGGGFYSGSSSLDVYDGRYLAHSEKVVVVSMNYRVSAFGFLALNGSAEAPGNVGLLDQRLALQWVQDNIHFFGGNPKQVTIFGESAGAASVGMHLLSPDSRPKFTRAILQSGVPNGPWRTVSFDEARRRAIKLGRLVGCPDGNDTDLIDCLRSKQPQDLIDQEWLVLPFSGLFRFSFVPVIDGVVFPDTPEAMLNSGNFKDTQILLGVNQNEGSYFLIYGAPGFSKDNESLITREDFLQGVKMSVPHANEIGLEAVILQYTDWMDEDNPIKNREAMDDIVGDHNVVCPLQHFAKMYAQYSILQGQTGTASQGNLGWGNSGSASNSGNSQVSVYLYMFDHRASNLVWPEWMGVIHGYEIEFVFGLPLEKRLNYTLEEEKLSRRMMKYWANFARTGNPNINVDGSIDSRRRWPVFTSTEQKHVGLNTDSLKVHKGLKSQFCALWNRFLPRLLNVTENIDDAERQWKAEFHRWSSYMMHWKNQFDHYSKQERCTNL

Tests used:
[1] = target: Cholinesterase (Equus caballus, UniProt P81908); experiment: Inhibition of equine serum BChE by Ellman's method
Summary of the method: (§1)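 Ellman assay on electric eel AChE or equine serum BChE at 25 °C, absorbance 412 nm. Ethanol stocks diluted into assay, highest final concentration 10^-4 M. For curves, at least five concentrations (normally 10^-4 to 10^-9 M), each in triplicate; at least 3 independent determinations.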

[2] = target: Acetylcholinesterase (Electrophorus electricus, UniProt O42275); experiment: Inhibition of electric eel AChE by Ellman's method; summary of the method: as §1

`CNC(=O)Oc1ccc2c(c1)[C@]1(C)CCN(C)[C@@H]1N2C` [PHYSOSTIGMINE] was tested, and the IC50 [1] was 60 nM and the IC50 [2] was 7.7 nM.
